Experimental data published in patent publication US8765173B2, “Drug delivery system for administration of a water soluble, cationic and amphiphilic pharmaceutically active substance” (Ardenia Investments, Ltd., priority 2007, dated 2014).

Test system: SPF Wistar rats of the strain HanTac:WH (GALAS)
Details: 6 mg/kg intravenous once weekly

## COc1cccc2c1C(=O)c1c(O)c3c(c(O)c1C2=O)C[C@@](O)(C(=O)CO)C[C@@H]3O[C@H]1C[C@H](N)[C@H](O)[C@H](C)O1 [Doxorubicin]
  fluid-filled abdomens: only observed in the positive control Group 2
